The source of these data is patent US20230312722A1 (NONA BIOSCIENCES SUZHOU, published 2023).

Sequences of proteins named here, by UniProt entry; tags and fusion partners are left off. Residues count along the entry.
UniProt P07766, 23-207 limits assumed, chain 1 of 3: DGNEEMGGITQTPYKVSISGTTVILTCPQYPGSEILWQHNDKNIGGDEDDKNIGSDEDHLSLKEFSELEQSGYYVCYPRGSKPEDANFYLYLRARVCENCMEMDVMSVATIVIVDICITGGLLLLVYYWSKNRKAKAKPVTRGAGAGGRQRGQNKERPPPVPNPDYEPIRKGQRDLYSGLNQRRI
CD3 on human T cells, UniProt P04234, 22-171 limits assumed, chain 2 of 3: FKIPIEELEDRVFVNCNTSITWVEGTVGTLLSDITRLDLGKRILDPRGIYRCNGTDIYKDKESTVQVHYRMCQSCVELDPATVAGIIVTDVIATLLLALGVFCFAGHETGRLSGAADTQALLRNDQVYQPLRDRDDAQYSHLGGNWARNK
CD3 on human T cells, UniProt P09693, 23-182 limits assumed, chain 3 of 3: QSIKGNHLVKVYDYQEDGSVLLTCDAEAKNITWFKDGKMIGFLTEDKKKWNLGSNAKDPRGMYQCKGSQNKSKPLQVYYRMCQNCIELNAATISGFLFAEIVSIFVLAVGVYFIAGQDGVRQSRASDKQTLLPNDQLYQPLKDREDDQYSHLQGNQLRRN

The target in assay [1] is T1, human B7H4 on the cell surface (human, UniProt Q7Z7D3 25-282).
T1 construct: whole, on cells; also called CHOK1/hu B7H4; B7H4 on SK-BR-3
T1 sequence (looked up): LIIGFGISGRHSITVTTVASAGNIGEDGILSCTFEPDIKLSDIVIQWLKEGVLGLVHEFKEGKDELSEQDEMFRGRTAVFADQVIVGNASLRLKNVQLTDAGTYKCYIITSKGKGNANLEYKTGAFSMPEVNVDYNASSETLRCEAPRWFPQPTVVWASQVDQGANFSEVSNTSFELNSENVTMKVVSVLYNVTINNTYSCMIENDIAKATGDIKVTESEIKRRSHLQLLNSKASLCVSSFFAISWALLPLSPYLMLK
The experiment in a line: FACS on SK-BR-3 cells. The procedure: (§1) SK-BR-3 cells were digested. T cells were isolated using the human T cell isolation kit (Miltenyi, #130-096-535) as described in the method of the instruction, and resuspended with PBS containing 2% BSA. The cell density was adjusted to 1×10⁶ cells/mL. The cells were seeded in a 96-well V-bottom plate (Corning, #3894) at 100 μL/well, followed by the addition of test antibodies diluted in a 3-fold gradient at a concentration that was 2 times the final concentration, each at 100 μL/well. The cells were incubated at 4° C. for 2 h away from light. Thereafter, the cells in each well were rinsed twice with 100 μL of pre-cooled PBS containing 2% BSA, and centrifuged at 500 g at 4° C. for 5 min, and then the supernatant was discarded. Then each well was added with 100 μL of fluorescent secondary antibody (Alexa Fluor 488-conjugated AffiniPure Goat Anti-Human IgG, Fcγ Fragment Specific, Jackson, #109-545-098, diluted in a 1:500 ratio), and the plate was incubated away from light at 4° C. for 1 h. The cells in each well were washed twice with 100 μL of pre-cooled PBS containing 2% BSA, and centrifuged at 500 g at 4° C. for 5 minutes, and then the supernatant was discarded. Finally, the cells in each well were resuspended with 200 μL of pre-cooled PBS containing 2% BSA, and the fluorescence signal values were read using an ACEA Novocyte3000 flow cytometer.

Assay [2] addresses CD3 on human T cells (human, UniProt P07766 23-207; P04234 22-171; P09693 23-182). The experiment in a line: FACS on human T cells; EC50 printed as n.d., curve still rising at 100 nM. How it is done:
as §1

B1: PR002852 (bispecific antibody, human IgG1, kappa, L234A L235A)
light: not shown
heavy: not shown
chain: QAVVTQEPSLTVSPGGTVTLTCRSSTGAVTTSNYANWVQQKPGQAPRGLIGGTNKRAPWTPARFSGSLLGDKAALTLLGAQPEDEAEYFCALWYSNLWVFGGGTKLTVLGGGQSGQGGSGGGGSEVQLVESGGGLVQPGGSLKLSCAASGFTFNTYAMNWVRQASGKGLEWVGRIRSKYNNYATYYADSVKDRFTISRDDSKSTLYLQMNSLKTEDTAVYYCVRHGNFGNSYVSWFAYWGQGTLVTVSSASEPKSSDKTHTCPPCPAPEAAGGPSVFLFPPKPKDTLMISRTPEVTCVVVDVSHEDPEVKFNWYVDGVEVHNAKTKPREEQYNSTYRVVSVLTVLHQDWLNGKEYKCKVSNKALGAPIEKTISKAKGQPREPQVYTLPPCREEMTKNQVSLWCLVKGFYPSDIAVEWESNGQPENNYKTTPPVLDSDGSFFLYSKLTVDKSRWQQGNVFSCSVMHEALHNHYTQKSLSLSPGK
For orientation: EC50 means the concentration that produces a half-maximal response. The low end stands for a more potent agent, the high end for a less potent agent. In turn, B1 gave a concentration for a half-maximal effect (EC50) in assay [1] of 32.2 nM. Besides, the “Maximum MFI” value was 154000 in assay [1] and 145000 in assay [2].

B2: PR002858 (bispecific antibody, human IgG1, kappa, lambda, L234A L235A)
chain 1: EVQLLESGGGLVQPGGSLRLSCAASGFTFSTYAMNWVRQAPGKGLEWVSRIRSKYNNYATYYADSVKDRFTISRDDSKSTLYLQMNSLRAEDTAVYYCVRHGNFGNSYVSWFAYWGQGTLVTVSSASTKGPSVFPLAPSSKSTSGGTAALGCLVKDYFPEPVTVSWNSGALTSGVHTFPAVLQSSGLYSLSSVVTVPSSSLGTQTYICNVNHKPSNTKVDKKVEPKSC
chain 2: QAVVTQEPSLTVSPGGTVTLTCRSSTGAVTTSNYANWVQQKPGQAPRGLIGGTNKRAPWTPARFSGSLLGDKAALTLLGAQPEDEAEYFCALWYSNLWVFGGGTKLTVLGQPKAAPSVTLFPPSSEELQANKATLVCLISDFYPGAVTVAWKADSSPVKAGVETTTPSKQSNNKYAASSYLSLTPEQWKSHRSYSCQVTHEGSTVEKTVAPTECSDKTHTCPPCPAPEAAGGPSVFLFPPKPKDTLMISRTPEVTCVVVDVSHEDPEVKFNWYVDGVEVHNAKTKPREEQYNSTYRVVSVLTVLHQDWLNGKEYKCKVSNKALGAPIEKTISKAKGQPREPQVYTLPPCREEMTKNQVSLWCLVKGFYPSDIAVEWESNGQPENNYKTTPPVLDSDGSFFLYSKLTVDKSRWQQGNVFSCSVMHEALHNHYTQKSLSLSPGK
heavy: not shown
light: not shown
Regarding B2, in assay [1], the EC50 was 67.8 nM and the “Maximum MFI” value came out at 153000. Also, the “Maximum MFI” value in assay [2] turned out to be 174000.
